ARFGAP1 inh: inhibits rat ARF GTPase activating protein 1; Arfgap1-stimulated ARF1 GTP hydrolysis, GDP FP detection; inhibition, % at 16.5 µM; 360,000 tested, 0.26% active;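 active = inhibition above a per-plate limit, mean inhibition of low control wells plus 3 SD, cut at about 25% in these data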;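 also: 0% = DMSO wells with enzyme and 100% = wells lacking Arfgap1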
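Material: rat Arfgap1 GAP domain (His6, aa 1-136), purified enzyme. Also added: human ARF1(Δ1-17)-GTP substrate. Compound dosing: 16.5 µM single point, 1.26% DMSO. Timing: enzyme reaction 120 min at 25 °C after 20 min preincubation. Signal: GDP detection by fluorescence polarization. Read-out basis: percent inhibition of GAP-stimulated GDP formation, scaled between DMSO and no-Arfgap1 medians.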
UUG fidelity: yeast start codon fidelity modulation | S. cerevisiae UUG-firefly luciferase reporter, luminescence/redox ratio | activity score, % at 18.7 µM | hit rate 0.13% among 350,000 | AID 602363;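 active means replicate mean at a twofold rise or more, about +100% in these data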;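 further: firefly luciferase made from a UUG start codon reports start codon fidelity; reporter light over untreated wells divided by growth signal over untreated wells; some hits fall short of that in this replicate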
ASAP1 inh: ASAP1 ArfGAP inhibition; Q9ULH1; ASAP1-stimulated ARF1 GTP hydrolysis, GDP FP detection; inhibition, % at 16.5 µM; 360,000 tested, 0.19% active; in the data active = inhibition above about 25%;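 also: 0% = vehicle with enzyme and substrate and 100% = no enzyme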
NRP1-CendR mod: modulators of CendR peptide binding to human neuropilin-1. FAM-RPARPAR peptide binding to NRP-1, fluorescence polarization. inhibition, % at 25 µM. 360,000 tested, 0.85% active. AID 602438;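 active = inhibition or corrected inhibition above about 18%, plus a signal ratio from 0.5 to 1.5, limit read from the data, passing the limit was not always enough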
MC4R ag barr: agonists of human melanocortin 4 receptor (MC4R) beta-arrestin; U2OS MC4R beta-arrestin complementation, luminescence; percent of melanotan II response, DMSO zero; 360,000 tested, 0.98% active; activation, % at 8.9 µM; P32245;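 active = activation above a per-plate cutoff, the mean activation of sample wells on that plate plus 3 SD, cut at about 8% in these data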
MC4R antag cAMP: blocks human MC4R cAMP signaling. P32245. MC4R-expressing cells, MTII-stimulated cAMP, LANCE TR-FRET. inhibition, % at 6.5 µM. 360,000 tested, 0.48% active;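 active = inhibition above its plate's cutoff, the mean of tested wells on that plate plus 3 SD, cut at about 29% in these data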;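 also: 0% = Melanotan II alone and 100% = Melanotan II plus saturating MCL0020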
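Assay system: U2OS cells stably expressing human melanocortin 4 receptor (MC4R) / Dosing: 6.5 µM / Timing: compound 30 min, challenge 1 h, detection 1 h / Measured by: Eu-cAMP/anti-cAMP TR-FRET, emission 671 nm / Replicates: singlicate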
* hit, by the source's call. Compounds with a hit are over-represented: about 2.3% of the library has one in this group of screens.

Sample of the layout (2 entries):
How did O=C(NC1CCCCC1)c1cc(S(=O)(=O)N2CCCC2)ccc1Cl do in these assays?
ARFGAP1 inh: -7.2; UUG fidelity: 5.1; ASAP1 inh: -2.7; NRP1-CendR mod: 22.2*; MC4R ag barr: -0.5; MC4R antag cAMP: 9.0

How did Cn1c(=O)c2[nH]c(-c3ccccc3)c(O)c2n(C)c1=O do in these assays?
ARFGAP1 inh: 12.3; ASAP1 inh: -11.6; NRP1-CendR mod: 36.4*; MC4R ag barr: -1.3; MC4R antag cAMP: -3.4

The list itself, previewed entries included:
How did O=C(NC1CCCCC1)c1cc(S(=O)(=O)N2CCCC2)ccc1Cl do in these assays?
ARFGAP1 inh: -7.2; UUG fidelity: 5.1; ASAP1 inh: -2.7; NRP1-CendR mod: 22.2*; MC4R ag barr: -0.5; MC4R antag cAMP: 9.0

How did Cn1c(=O)c2[nH]c(-c3ccccc3)c(O)c2n(C)c1=O do in these assays?
ARFGAP1 inh: 12.3; ASAP1 inh: -11.6; NRP1-CendR mod: 36.4*; MC4R ag barr: -1.3; MC4R antag cAMP: -3.4

What do the screens show for `Cc1cccc(N(CC(=O)NC2CCCC2)C(=O)CS(=O)CC(=O)Nc2ccc3c(c2)OCO3)c1C` (centres undefined)?
ARFGAP1 inh: 3.2; UUG fidelity: -7.2; ASAP1 inh: -10.1; NRP1-CendR mod: 28.2*; MC4R ag barr: -1.5; MC4R antag cAMP: 2.8

What do the screens show for `C#CCOc1nc(C)cc(C)c1S(=O)(=O)c1ccccc1C`?
ARFGAP1 inh: -4.8; ASAP1 inh: 12.1; NRP1-CendR mod: 34.6*; MC4R ag barr: -1.6; MC4R antag cAMP: 7.5

Results for CCCOc1ccc(OCC(=O)c2[nH]c(C)c(C(C)=O)c2C)cc1 ?
NRP1-CendR mod: 40.6*; MC4R ag barr: -1.6; MC4R antag cAMP: -7.0

How did COc1ccccc1CNC(=O)C[C@@H]1CC[C@@H]2[C@H](COC[C@@H](O)CN2C(=O)Nc2ccc(Cl)cc2)O1 do in these assays?
UUG fidelity: 14.5

How did COc1ccc(C(=O)NCCN2CCN(C(=O)c3ccc(OC)c(OC)c3)CC2)cc1OC do in these assays?
ARFGAP1 inh: -10.6; UUG fidelity: -2.8; ASAP1 inh: -10.3; NRP1-CendR mod: 0.8; MC4R ag barr: -0.1; MC4R antag cAMP: 19.1

Results for O=C(NCCN1CCN(C(=O)c2cccc(OC(F)F)c2)CC1)c1cccc(OC(F)F)c1 ?
ARFGAP1 inh: 1.2; UUG fidelity: -3.9; ASAP1 inh: -3.2; NRP1-CendR mod: 22.4*; MC4R ag barr: -0.9; MC4R antag cAMP: 5.5

How did O=C1CC(c2ccccc2)c2ccccc21 (centres undefined) do in these assays?
ARFGAP1 inh: 1.4; ASAP1 inh: 9.0; NRP1-CendR mod: 2.4; MC4R ag barr: -2.4; MC4R antag cAMP: -3.0

Results for CN1Cc2c(N)cccc2C(c2ccccc2)C1 (centres undefined) ?
ARFGAP1 inh: 4.0; UUG fidelity: -9.3; ASAP1 inh: 0.1; NRP1-CendR mod: 30.1*; MC4R ag barr: -1.7; MC4R antag cAMP: -4.4

Results for COc1ccc(CN2CCN(c3cccc(C)c3C)CC2)cc1OC ?
ARFGAP1 inh: 33.6*; UUG fidelity: -9.3; ASAP1 inh: 1.1; NRP1-CendR mod: -2.4; MC4R ag barr: -2.0; MC4R antag cAMP: 5.5

Results for Cc1ccc(C(=O)CN(CCC(=O)O)C(=O)c2ccncc2)cc1 ?
ARFGAP1 inh: -3.1; UUG fidelity: -11.8; ASAP1 inh: -2.6; NRP1-CendR mod: 21.8*; MC4R ag barr: -1.9; MC4R antag cAMP: 0.7

What do the screens show for `COCCCNC(=O)C[C@@H]1C[C@@]2(C(=O)OC)CC(C)(C)CC=C2N(Cc2cccc3ccccc23)C1=O`?
ARFGAP1 inh: 1.1; ASAP1 inh: -2.3; NRP1-CendR mod: 23.7*

How did Cc1ccc(N=C2NC(=O)/C(=C\c3ccsc3)S2)c(C)c1 do in these assays?
ARFGAP1 inh: -11.8; UUG fidelity: -28.9; ASAP1 inh: 7.5; NRP1-CendR mod: 26.0*; MC4R ag barr: 2.9; MC4R antag cAMP: 18.4

What do the screens show for `COc1ccccc1CNC(=O)C[C@@H]1CC[C@@H](NC(=O)CC2CC2)[C@H](CO)O1`?
UUG fidelity: -10.6

How did CCn1c(=O)c(CCC(=O)NCCN2CCOCC2)c(C)c2c(C)nn(-c3cccc(C)c3)c21 do in these assays?
ARFGAP1 inh: -7.1; UUG fidelity: -4.5; ASAP1 inh: -14.3; NRP1-CendR mod: 28.3*; MC4R ag barr: -0.5; MC4R antag cAMP: 9.4

How did C[C@@H]1CCCCO[C@@H](CN(C)Cc2ccc(C(F)(F)F)cc2)[C@H](C)CN([C@@H](C)CO)C(=O)c2cc(NC(=O)CCC(F)(F)F)ccc2O1 do in these assays?
UUG fidelity: 3.5

How did COc1ccc(C(=O)NCc2ccc3c(c2)OCO3)cc1 do in these assays?
ARFGAP1 inh: 13.7; UUG fidelity: 1.4; ASAP1 inh: 2.3; NRP1-CendR mod: -0.4; MC4R ag barr: -2.7; MC4R antag cAMP: 14.5

Source: PubChem BioAssay
